ChEMBL document CHEMBL1129458, “Indole inhibitors of human nonpancreatic secretory phospholipase A2. 3. Indole-3-glyoxamides” (J Med Chem, 1996)

Molecular target: T1, Phospholipase A2, membrane associated (Homo sapiens, UniProt P14555)
T1 sequence (P14555 whole entry): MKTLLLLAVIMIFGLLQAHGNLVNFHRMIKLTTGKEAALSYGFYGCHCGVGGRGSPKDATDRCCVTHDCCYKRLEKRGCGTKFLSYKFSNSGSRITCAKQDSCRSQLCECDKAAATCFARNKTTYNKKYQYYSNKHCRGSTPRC
Assay: Inhibition of human nonpancreatic secretory Phospholipase A2 through DOC/PC assay
In short: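 hnps-PLA2 (10 ng per tube; 3 nM) was preincubated with test compound in DMSO in pH 8 Tris buffer with 0.2 M NaCl, 2 mM CaCl2 and fatty-acid-free BSA. The substrate was sonicated mixed micelles (final 3 mM deoxycholate/1 mM PC) with [14C]-palmitoyl-oleoyl-PC. Reactions ran 1 h at 40 °C and were stopped with Dole reagent. Released [14C]oleic acid was extracted with heptane/silica and counted. IC50 was calculated against diluent controls.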

For `CCc1c(C(=O)C(N)=O)c2c(OCC(=O)O)cccc2n1Cc1ccccc1` [VARESPLADIB], the IC50 was 7 nM.
